Measured values as given in published antibiotic growth screens (doi:10.1038/s41589-023-01349-8).
The list shows a part of the results.

Each compound was assayed on A. baumannii ATCC 17978 (assay: relative growth (fraction of control); higher = less inhibition). Settings: 50 µM.
Work on `COc1ccc(-c2coc3c(O)c(O)c(OC)cc3c2=O)cc1` yielded a relative growth of 1.04.
In the case of `CCC1(C)OC(=O)N(C)C1=O` (centres undefined), the relative growth is reported as 0.995.
`C[C@H]1CN([C@@H](C)CO)S(=O)(=O)c2ccc(C#CCN(C)C)cc2O[C@@H]1CN(C)C(=O)CN(C)C` showed a relative growth of 0.878.
`CO[C@@]1(NC(=O)C(C(=O)[O-])c2ccc(O)cc2)C(=O)N2C(C(=O)[O-])=C(CSc3nnnn3C)CO[C@@H]21.[Na+].[Na+]` (some centres undefined) showed a relative growth of 1.11.
`O=C(OOC(=O)c1ccccc1)c1ccccc1` was tested, and the relative growth was 0.974.
Compound `CC(O)Cn1cnc2c1c(=O)n(C)c(=O)n2C` (centres undefined) has a relative growth of 0.957.
`COc1ccc([Si](C)(C)[C@@H]2[C@@H](CC(=O)N3Cc4ccccc4C[C@H]3CO)O[C@]3(C(=O)N(Cc4ccc(N5C(=O)c6cccc7cccc5c67)cc4)c4ccccc43)[C@H]2C)cc1` gave a relative growth of 0.958.
In the case of `NCCCC[C@H](N)C(=O)O`, the relative growth is reported as 1.1.
`CC1(C)CC[C@]2(C(=O)O[C@@H]3O[C@H](CO)[C@@H](O)[C@H](O)[C@H]3O)CC[C@]3(C)C(=CC[C@H]4[C@@]5(C)CC[C@@H](O[C@@H]6O[C@H](C(=O)O)[C@@H](O[C@@H]7OC[C@@H](O)[C@H](O)[C@H]7O)[C@H](O[C@@H]7OC[C@](O)(CO)[C@H]7O)[C@H]6O)C(C)(C)[C@@H]5CC[C@]43C)[C@@H]2C1` gave a relative growth of 1.03.
`NS(=O)(=O)c1cc2c(cc1C(F)(F)F)NCNS2(=O)=O` was tested, and the relative growth was 1.02.
With `CN(Cc1ccc(C(C)(C)C)cc1)Cc1cccc2ccccc12.Cl` the relative growth was 0.954.
Work on `CN1CCC(=C2c3ccccc3C=Cc3ccccc32)CC1.Cl` yielded a relative growth of 0.965.
Work on `NC(=O)CCCCC1CCSS1` (centres undefined) yielded a relative growth of 1.01.
`COCCOC(=O)N1C(=O)[C@@]2(c3cc(C#CC4(O)CCCCCC4)ccc31)[C@H](C(=O)NC[C@H](O)c1ccccc1)[C@H]1C(=O)O[C@H](c3ccccc3)[C@H](c3ccccc3)N1[C@@H]2c1ccc(OCCO)cc1` was tested, and the relative growth was 1.14.
`O=c1nc[nH]c2nn(-c3ccccc3)nc12` gave a relative growth of 0.789.
`C[C@@H]1CN([C@H](C)CO)C(=O)c2cc(-c3ccc(C(=O)N(C)C)cc3)cnc2O[C@@H]1CN(C)C(=O)c1cccnc1` gave a relative growth of 0.964.
`CN(C)c1nc(N)nc(Cn2ccnc2)n1` gave a relative growth of 1.01.
`O=C(O)c1cncc(C(=O)O)c1` was tested, and the relative growth was 0.991.
In the case of `O=C(CCNc1n[nH]c(=O)[nH]c1=O)NCc1ccco1`, the relative growth is reported as 0.97.
Compound `COc1cc2c(cc1-c1coc3c4c(ccc3c1=O)OC(C)(C)CC4)OCO2` has a relative growth of 0.852.
Compound `CCCOc1ccc(C(=O)OCCN(CC)CC)cc1N.Cl` has a relative growth of 1.1.
`COc1ccc(-c2csc(CCN)n2)cc1` showed a relative growth of 0.997.
With `Cc1cc(C)c(C(=O)O)c(=O)[nH]1` the relative growth was 1.12.
`CCNC(=O)C[C@H]1CC[C@H](NC(=O)C2CCOCC2)[C@H](CO)O1` was tested, and the relative growth was 0.858.
Work on `O=C(C[C@H]1CC[C@@H](NS(=O)(=O)c2ccc(F)cc2)[C@@H](CO)O1)N1CCC(Cc2ccccc2)CC1` yielded a relative growth of 1.13.
In the case of `COc1ccc(S(=O)(=O)N2C[C@@H](O)COC[C@H]3O[C@@H](CC(=O)NCc4ccc(Cl)c(Cl)c4)CC[C@@H]32)cc1`, the relative growth is reported as 0.869.
Work on `O=C(C[C@H]1CC[C@@H]2[C@H](COC[C@@H](O)CN2Cc2cc(F)ccc2F)O1)N[C@@H]1CCN(Cc2ccccc2)C1` yielded a relative growth of 1.11.
In the case of `C[C@H](CO)N1C[C@H](C)[C@@H](CN(C)Cc2ccccc2F)Oc2cc(C#CC3CC3)ccc2S1(=O)=O`, the relative growth is reported as 1.12.
Compound `COCC(=O)Nc1ccc2c(c1)C(=O)N(C)[C@@H]1CC[C@@H](CC(=O)NCc3ccc(OC)cc3)O[C@H]1CO2` has a relative growth of 1.03.
In the case of `O=C1c2ccccc2[C@](Cc2ccccc2I)(C(=O)NCc2ccccc2)[C@H](c2ccc(CO)cc2)N1Cc1ccccc1C(F)(F)F`, the relative growth is reported as 0.936.
`Cn1cnc(S(=O)(=O)N[C@@H]2CC[C@@H](CC(=O)NCC3CC3)O[C@H]2CO)c1` showed a relative growth of 1.07.
`CC(C)NC(=O)N(C)C[C@H]1Oc2cc(C#Cc3ccc(F)cc3)ccc2S(=O)(=O)N([C@H](C)CO)C[C@@H]1C` showed a relative growth of 0.808.
For `COc1ccc([Si](C)(C)[C@H]2[C@H](CC(=O)N3CCC[C@H]3CO)O[C@@]3(C(=O)N(Cc4cccc(N5C(=O)COc6ccccc65)c4)c4ccccc43)[C@@H]2C)cc1`, the relative growth was 1.07.
For `C[C@@H]1[C@@H]([Si](C)(C)F)[C@H](CCO)O[C@@]12C(=O)N(Cc1cccc(N3C(=O)c4cccc5cccc3c45)c1)c1ccccc12`, the relative growth was 1.22.
Work on `CN1C(=O)CC[C@H]1c1cccnc1` yielded a relative growth of 0.906.
Compound `Cn1c(=O)c2[nH]c(NCCN3CCOCC3)nc2n(C)c1=O` has a relative growth of 0.948.
In the case of `O=C(C[C@@H]1C=C[C@H](NC(=O)C2CC2)[C@H](CO)O1)NCCCN1CCOCC1`, the relative growth is reported as 1.06.
Work on `O=C(C[C@@H]1C=C[C@H](NC(=O)CN2CCOCC2)[C@@H](CO)O1)NCCc1ccccc1` yielded a relative growth of 1.1.
Compound `CN(C)CCCN1C(=O)[C@@]2(Cc3ccccc31)c1ccccc1C(=O)N(C1CCCCC1)[C@H]2c1ccc(CO)cc1` has a relative growth of 0.921.
For `CO[C@@H]1CN(C)C(=O)c2ccc(NC(=O)C3CCOCC3)cc2OC[C@H](C)N(Cc2cccnc2)C[C@@H]1C`, the relative growth was 0.98.
For `Cc1cc(O)c(C=O)c(O)c1C(=O)O`, the relative growth was 1.05.
`CN1CCN(C(=O)C[C@H]2C=C[C@H](NC(=O)c3ccc4c(c3)OCO4)[C@@H](CO)O2)CC1` showed a relative growth of 0.901.
With `C[C@@H](N)c1cnn(-c2ccccc2F)c1` the relative growth was 1.12.
Compound `O=C(C[C@H]1CC[C@H]2[C@@H](COC[C@@H](O)CN2S(=O)(=O)c2ccccc2Cl)O1)NCc1ccccc1Cl` has a relative growth of 0.856.
`Cc1cncc2cccc(S(=O)(=O)N3CC[C@H](N(C/C=C/c4ccc(Br)cc4)C/C=C/c4ccc(Br)cc4)C3)c12` was tested, and the relative growth was 0.882.
Compound `CCOC(=O)c1cccc(C(=O)O)n1` has a relative growth of 0.995.
`O=c1oc2c(O)c(O)cc3c(=O)oc4c(O)c(O)cc1c4c23` showed a relative growth of 0.977.
Compound `NC(=O)NCCC[C@H](N)C(=O)O` has a relative growth of 0.919.
For `C[C@@H]1CN([C@@H](C)CO)S(=O)(=O)c2ccc(C#CCN(C)C)cc2O[C@@H]1CN(C)Cc1ccccn1`, the relative growth was 0.987.
`COc1ccc(-c2coc3cc(OC(C)=O)cc(OC(C)=O)c3c2=O)cc1` gave a relative growth of 0.985.
In the case of `O=c1oc2cc3occ(-c4ccccc4)c3cc2c2ccccc12`, the relative growth is reported as 1.04.
`NS(=O)(=O)c1ccc(Cl)c2nonc12` was tested, and the relative growth was 1.01.
For `O=C(c1cccs1)N1c2ccccc2Sc2ccccc21`, the relative growth was 1.26.
In the case of `C[C@@H]1CN([C@H](C)CO)S(=O)(=O)c2ccc(-c3ccc(C#N)cc3)cc2O[C@H]1CN(C)C(=O)CN(C)C`, the relative growth is reported as 1.01.
